Apparent affinities of Ab-14 variants for a coronavirus HR2 peptide

Reference: Li et al. 2023, doi:10.1038/s41467-023-39022-2. File: FLAb, binding data.

Target peptide (SARS-CoV-2 spike, HR2 region): PDVDLGDISGINAS

Parent: Ab-14, a human scFv built as VH, three GGGGS repeats, VL. Only the CDRs of the light chain vary.
VH: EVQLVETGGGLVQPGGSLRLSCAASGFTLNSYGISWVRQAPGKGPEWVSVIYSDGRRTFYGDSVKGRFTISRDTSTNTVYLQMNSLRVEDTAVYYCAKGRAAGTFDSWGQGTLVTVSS
VL: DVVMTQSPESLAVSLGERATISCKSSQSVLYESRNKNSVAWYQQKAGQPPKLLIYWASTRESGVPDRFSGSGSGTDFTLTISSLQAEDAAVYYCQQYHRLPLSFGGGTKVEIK

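The starting antibody came from a phage panning campaign against this peptide. The variants were designed computationally from a first round of random CDR variants and then made and measured. Group labels follow the data file (Ctrl: baseline library sampled from a position-specific scoring matrix, with some repeated check sequences; En: ensemble of fine-tuned language models; GP: Gaussian process model; HC: hill climbing; Gen: genetic algorithm; Gibbs: Gibbs sampling; a sequence that several methods proposed may carry one label only). The scFvs were displayed on barcoded MATa yeast, the peptide on MATalpha yeast. After mating in shaken culture at 30 °C for 16 h, diploids were selected and their barcode pairs sequenced. Each replicate has its own calibration line, from reference interactions of the BCL2 family. There are six technical replicates.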

Variants are written as CDR1, CDR2 and CDR3 of the light chain (limits as in the source). Parent: KSSQSVLYESRNKNSVA, WASTRES, QQYHRLPLS.
Numbers give log10(Kd / nM), so 0 is 1 nM and 3 is 1 µM. Smaller is tighter.
Averages over replicates are reported, and they cover detected replicates only.
An entry "nd" has no value in the source: the pair was not observed among the diploids in any replicate. This suggests poor binding but is not conclusive.
Three control strains display no target. For all light chain designs, 4% of the pairings with them gave a signal, with a median of 2.64 and one signal in twenty below 1.59, so weak values seen in few replicates may be background.
A sequence measured in both rounds can read differently, since the two assays cover different ranges.
The authors averaged sequences with at least three values out of six and counted those with two or fewer as poor binders.
The parent sequence was in this pool as ten entries: three were never detected, three once, and four in most replicates, with averages from 0.34 to 2.37.

CDR-L1,CDR-L2,CDR-L3,group,"mean, log10 nM",seen in
KIPQSWLGEWRNKNSVA,NASQRES,QQYHRLPLS,GP_Gibbs,-0.12,6/6
TISQMYNMGQFAINSVA,QASERNE,QQYDRLPLQ,En_Gen,0.34,6/6
VSSQSVLYESRNKNSVA,WASTRES,QQYHRDPLS,Ctrl,nd,0/6
TLTQVQGMQSHNKNSVA,DLSTRGS,QQYHRLPLS,En_HC,0.61,6/6
KLYQNVGTMAHNKQSIA,DMERRED,QQYHRLPLS,En_HC,0.41,6/6
KISSLTAYESVNKNSVA,EMSTRPS,QSYHRLPLS,En_HC,0.60,6/6
KLSQSVLYESRNKNSVA,WASTRES,QQVHRLPLA,Ctrl,nd,0/6
KEPQSHDYESRNMNSVA,NASERES,QQYHRLPLS,GP_Gibbs,-0.21,6/6
KSSQSVLYESFNKNSVA,WASTRES,QQYQRLPLS,Ctrl,1.36,6/6
KSSQSVPYSSRNKNSVA,WASTRES,QSYHRLPLS,Ctrl,3.27,1/6
KSSISVLYESENKNSVA,DASQRES,QQYHRLPLS,GP_HC,0.34,6/6
KFQQSVLYESRNKNSVA,GASTRLS,QQYHRLPLS,GP_Gen,-0.05,6/6
TLMFDGEYSDKENYAIA,DAIHAQV,QQYVRLPLS,En_Gibbs,0.83,6/6
KCEISVMQWERNKNSVA,NASTREV,QQYHRLPLS,GP_Gibbs,1.00,3/6
KFSQSVLYESRNKNSVA,AASTRES,QQYHRLPLS,Ctrl,nd,0/6
NIGMTLNMLEHKQNNVA,DLVTREN,QQYHRLPLS,En_Gen,0.71,6/6
KVSQSVLYESRNSNSVA,DASTRES,QQYHRLPLS,GP_Gen,-0.14,6/6
GMSDSMQETIADANHIA,DGEARDV,QQYARLPLI,En_Gibbs,0.59,6/6
KQSQSFLYESRNSNSVA,DASQRED,QDYHRLPLM,GP_Gibbs,0.51,6/6
KSSQPVLYESRNKNSVA,SASTRES,QQYHRLPLS,Ctrl,1.13,6/6
MFSQSVMYGSFYRNSVA,QTSTREA,QQYDRLPLS,En_HC,0.65,6/6
KLSQSELYESRNSNSVA,EASTRES,QQYHRLPLS,GP_Gen,-0.03,6/6
KLVQFMNRGTHHTSNIA,DAANRID,QQYYRLPLA,En_Gen,1.94,5/6
KSSQSVLMEPRNKNSVA,DASTRES,QQYHRLPLS,GP_HC,0.33,6/6
NLVQMKSVGDYNAGNVA,AGNQRSV,QQYNRLPLI,En_Gibbs,0.32,6/6
KVSQSQLYESRMKNSVA,DASTRCS,QQYHRLPLE,GP_HC,0.31,6/6
MMSQMIEGLSTSKNPVA,QVSTREE,QQYHRLPLS,En_HC,0.90,6/6
KYYQSGLYESRNKNSVA,QASTRES,QQYHLLPLS,GP_HC,0.44,6/6
KLSMYYRYESQEKNSIA,EMSTREE,QSYHRLPLS,En_HC,1.51,6/6
KSSQSVMYESMNKNSVA,WASTPES,QQKHRLPLS,Ctrl,1.71,3/6
KIGQQVTYESTNKNAIA,QMTTREQ,QQYHRLPLS,En_HC,0.05,6/6
KSMTSMEYESRNKNSVA,EASTREL,QQYHRLPLS,GP_Gibbs,0.04,6/6
KSSISKLYESMNKNSVA,NGSTRES,QQYHRLPLS,GP_HC,0.04,6/6
KLYQSMGYLSHNKSSIA,DMSRREN,QQYHRLPLS,En_HC,0.81,6/6
QMYPFEVAKGEGTNNVA,HVSVRAL,QQYERLPLV,En_Gibbs,1.21,6/6
KWLQSVLYESRNKNSVA,HASTRED,QQYHQLPLS,GP_HC,nd,0/6
KWEMSQLYESRNKNSVA,NASLRMS,QQYHRLPLS,GP_Gibbs,0.41,6/6
KVSQSVLYESRNKNSVA,HASTRES,QQYHRLPLS,GP_Gen,0.11,6/6
KLPQSVLYGSRNKNSVA,EASTRES,QQYHRLPLS,GP_Gen,-0.29,6/6
MLSEVLHMLGAKKNSIA,DLVLRAN,QQYHRLPLF,En_Gen,nd,0/6
KSSQSVYYESRNKNSVA,WASTRES,QQYHRLPLS,Ctrl,2.07,5/6
MISDLTMYGSRNVNSVA,DLSMRGS,QQYHRLPLS,En_HC,0.26,6/6
KLQQSVDYESRNKNSVA,NASTRLS,QQYHRLPLS,GP_Gen,0.22,6/6
KLSQSQLYESRMKNSVA,NASTREQ,QQYHRLPLS,GP_Gen,-0.27,6/6
MISMNIYGAYRARDNVA,HASNRED,QCYDRLPLS,En_Gen,1.71,5/6
KSSQSVLYESRNKNSVA,SASTRES,QCYHVLPLS,Ctrl,2.61,6/6
KISQSVLYPSRNKNSVA,WASTRES,QQYHRLPLS,Ctrl,-0.17,6/6
KVSPSGLYESRNKNSVA,EASTRES,QQYHRLPLS,GP_Gen,-0.36,6/6
KGSQSVLYESRNKASVA,SARTRMS,QQYHRLPLS,Ctrl,1.68,5/6
MISDLTSYGLRNVNSVA,DLSTRGN,QQYDRLPLS,En_HC,0.13,6/6
HLSDVVLYESRNKNSVA,NASTRES,QQYHRLPLS,GP_HC,-0.06,6/6
TIGASLMYGSRNRSNVA,EVSERPN,QQYDRLPLM,En_Gen,2.38,3/6
KISQMSTIESITHNSVA,QTSTREE,QQYDRLPLS,En_HC,0.14,6/6

The 9 strongest on average among those seen in every replicate, once more:

{"CDR-L1": "KVSPSGLYESRNKNSVA", "CDR-L2": "EASTRES", "CDR-L3": "QQYHRLPLS", "group": "GP_Gen", "mean, log10 nM": "-0.36", "seen in": "6/6"}
{"CDR-L1": "KLPQSVLYGSRNKNSVA", "CDR-L2": "EASTRES", "CDR-L3": "QQYHRLPLS", "group": "GP_Gen", "mean, log10 nM": "-0.29", "seen in": "6/6"}
{"CDR-L1": "KLSQSQLYESRMKNSVA", "CDR-L2": "NASTREQ", "CDR-L3": "QQYHRLPLS", "group": "GP_Gen", "mean, log10 nM": "-0.27", "seen in": "6/6"}
{"CDR-L1": "KEPQSHDYESRNMNSVA", "CDR-L2": "NASERES", "CDR-L3": "QQYHRLPLS", "group": "GP_Gibbs", "mean, log10 nM": "-0.21", "seen in": "6/6"}
{"CDR-L1": "KISQSVLYPSRNKNSVA", "CDR-L2": "WASTRES", "CDR-L3": "QQYHRLPLS", "group": "Ctrl", "mean, log10 nM": "-0.17", "seen in": "6/6"}
{"CDR-L1": "KVSQSVLYESRNSNSVA", "CDR-L2": "DASTRES", "CDR-L3": "QQYHRLPLS", "group": "GP_Gen", "mean, log10 nM": "-0.14", "seen in": "6/6"}
{"CDR-L1": "KIPQSWLGEWRNKNSVA", "CDR-L2": "NASQRES", "CDR-L3": "QQYHRLPLS", "group": "GP_Gibbs", "mean, log10 nM": "-0.12", "seen in": "6/6"}
{"CDR-L1": "HLSDVVLYESRNKNSVA", "CDR-L2": "NASTRES", "CDR-L3": "QQYHRLPLS", "group": "GP_HC", "mean, log10 nM": "-0.06", "seen in": "6/6"}
{"CDR-L1": "KFQQSVLYESRNKNSVA", "CDR-L2": "GASTRLS", "CDR-L3": "QQYHRLPLS", "group": "GP_Gen", "mean, log10 nM": "-0.05", "seen in": "6/6"}